Measurements: patent publication US20240400690A1 (BIO THERA SOLUTIONS, published 2024)

Key:
Lag3 (on Lag3-CHO cells) = molecular target: T1, Lag3 (on Lag3-CHO cells) (UniProt P18627 23-525, limits assumed); assay: flow cytometry on Lag3-CHO cells
T1 construct: whole, on cells
T1 sequence (looked up): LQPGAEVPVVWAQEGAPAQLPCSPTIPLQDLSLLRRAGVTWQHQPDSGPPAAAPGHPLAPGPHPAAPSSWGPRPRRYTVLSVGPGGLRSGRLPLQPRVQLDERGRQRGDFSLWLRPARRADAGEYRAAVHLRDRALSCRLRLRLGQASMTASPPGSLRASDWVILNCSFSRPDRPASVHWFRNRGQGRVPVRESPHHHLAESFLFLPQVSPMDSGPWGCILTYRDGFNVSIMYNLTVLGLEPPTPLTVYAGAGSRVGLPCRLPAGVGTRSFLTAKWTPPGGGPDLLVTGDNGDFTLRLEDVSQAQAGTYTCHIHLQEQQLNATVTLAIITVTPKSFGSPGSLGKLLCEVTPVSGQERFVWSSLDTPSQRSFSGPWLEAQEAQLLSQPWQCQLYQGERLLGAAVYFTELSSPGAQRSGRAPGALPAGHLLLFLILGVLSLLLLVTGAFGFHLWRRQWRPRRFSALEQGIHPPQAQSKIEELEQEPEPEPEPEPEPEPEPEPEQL
Description: (§1) Cells (VISTA-CHO cells, Tim3-CHO cells or Lag3-CHO cells) in logarithmic phase were collected and centrifuged at 1500 rpm for 5 min, and the supernatant was removed. The cells were resuspended in 1×PBS and centrifuged at 1500 rpm for 5 min, and the supernatant was removed, and then the procedure was repeated once. […]

Tim3 (on Tim3-CHO cells) = molecular target: T2, Tim3 (on Tim3-CHO cells) (UniProt Q8TDQ0 22-301, limits assumed); assay: flow cytometry on Tim3-CHO cells
T2 construct: whole, on cells
T2 sequence (looked up): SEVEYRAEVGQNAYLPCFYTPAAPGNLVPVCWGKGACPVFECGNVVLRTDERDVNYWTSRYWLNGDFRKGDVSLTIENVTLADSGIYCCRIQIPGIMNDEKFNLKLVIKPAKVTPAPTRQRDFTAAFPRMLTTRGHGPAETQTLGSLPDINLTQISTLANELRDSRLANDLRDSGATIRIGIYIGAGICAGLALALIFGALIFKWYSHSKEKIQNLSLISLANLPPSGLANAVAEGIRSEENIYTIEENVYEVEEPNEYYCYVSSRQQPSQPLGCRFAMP
Description: as §1

[1] = molecular target: T3, VISTA (on VISTA-CHO cells) (UniProt Q9H7M9 33-311, limits assumed); assay: flow cytometry on VISTA-CHO cells
T3 construct: whole, on cells
T3 sequence (looked up): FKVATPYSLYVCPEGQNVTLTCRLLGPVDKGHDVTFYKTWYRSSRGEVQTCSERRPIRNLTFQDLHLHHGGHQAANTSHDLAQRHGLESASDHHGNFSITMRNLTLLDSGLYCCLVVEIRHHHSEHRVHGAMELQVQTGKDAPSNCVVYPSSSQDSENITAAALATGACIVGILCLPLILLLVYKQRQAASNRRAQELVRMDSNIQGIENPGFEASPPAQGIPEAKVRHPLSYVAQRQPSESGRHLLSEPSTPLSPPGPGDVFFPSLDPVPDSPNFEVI
Description: as §1

Measured: binding result

B1: antibody V4 (antibody, human IgG1, kappa, V domains shown)
VH: EVQLVESGGGLVQPGGSLRLSCAASGYTFTDYDINWVRQAPGKGLEWVGWIFPGDDTTKYNEKFKGRFTISADKSKNTAYLQMNSLRAEDTAVYYCARSPSFDYWGQGTLVTVSS
VL: QIVLTQSPSSLSASVGDRVTITCSASSTIGFMYWYQQKPGKAPKRWIYDTSKLASGVPSRFSVSGSGTDYTLTISSLQPEDFATYYCHQRSSYPTFGQGTKVEIKR
no binding (tested: 100 nM): all assays above
